Target: mouse μ opioid receptor (Mus musculus, UniProt P42866)
Test: cell-based
Conditions: HEK293, read-out: Max Inhibition

Amino acid sequences for entries named in this document (tags omitted).
UniProt P42866, whole entry: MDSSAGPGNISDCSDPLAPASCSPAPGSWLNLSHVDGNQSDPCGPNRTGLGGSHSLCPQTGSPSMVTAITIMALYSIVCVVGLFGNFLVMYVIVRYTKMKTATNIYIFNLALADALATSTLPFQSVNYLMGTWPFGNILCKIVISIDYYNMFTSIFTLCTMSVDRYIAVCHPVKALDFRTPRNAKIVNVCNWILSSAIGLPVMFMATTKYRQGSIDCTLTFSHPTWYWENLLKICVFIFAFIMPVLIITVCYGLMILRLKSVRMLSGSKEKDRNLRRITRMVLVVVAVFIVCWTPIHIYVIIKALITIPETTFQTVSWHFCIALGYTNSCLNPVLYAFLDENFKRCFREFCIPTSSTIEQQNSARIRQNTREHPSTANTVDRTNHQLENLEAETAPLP

Q: With `CN1CC[C@]23c4c5ccc(O)c4O[C@H]2C(=O)CC[C@H]3[C@H]1C5` [Hydromorphone] as the molecule, how does the Emax read?
A: 67 ± 4%
